Target: Translocator protein (Homo sapiens, UniProt P30536)

Chains of the proteins cited; added tags and fusions are not shown.
UniProt P30536, whole entry: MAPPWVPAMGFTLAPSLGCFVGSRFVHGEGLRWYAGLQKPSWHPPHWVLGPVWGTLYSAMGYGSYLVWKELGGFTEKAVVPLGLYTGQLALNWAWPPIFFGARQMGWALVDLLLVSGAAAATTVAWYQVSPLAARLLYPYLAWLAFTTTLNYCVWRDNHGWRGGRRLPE

CC[C@@H](C)N([11CH3])C(=O)c1cc2ccccc2c(-c2ccccc2Cl)n1
Ki: 2.1 nM

From ChEMBL document CHEMBL5344430, “Targeting the Translocator Protein (18 kDa) in Cardiac Diseases: State of the Art and Future Opportunities” (J Med Chem, 2024)
